Values of other authors, collected in the CATMoS acute toxicity set (Mansouri et al. 2021).
“And” between values parts separate entries of the source, which are not always exact repeats. Equal values may be shown once.

Test: rat acute oral toxicity
Conditions: in vivo

Question: With `CB1P(C)B(C)P(C)B(C)P1C` (stereo unspecified) as the compound, how does the LD50 read?
Answer: Its LD50 is 13.5 mg/kg.

Question: Which LD50 does the source give for `CCOP(O)(=S)CC` (stereo unspecified) here?
Answer: Its LD50 is 600 mg/kg.

Question: For `O=[N+]([O-])OCC(CO)O[N+](=O)[O-]` (stereo unspecified), which LD50 is on record?
Answer: The LD50 was 1420 mg/kg.

Question: With `CCCP(=O)(O)OCC` as the compound, how does the LD50 read?
Answer: Its LD50 is 2300 mg/kg.

Question: For `[Ag+].[C-]#N`, which LD50 is on record?
Answer: The LD50 was 123 mg/kg.

Question: Which LD50 does the source give for `CC(C)N(CCO)C(C)C` here?
Answer: Its LD50 is 860 mg/kg.

Question: With `CO[N+](=O)[O-]` as the compound, how does the LD50 read?
Answer: The LD50 was 344 mg/kg.

Question: With `OCCSCCO` as the compound, how does the LD50 read?
Answer: Its LD50 is 6610 mg/kg.

Question: With `O=C(O)CCC([N+](=O)[O-])([N+](=O)[O-])[N+](=O)[O-]` as the compound, how does the LD50 read?
Answer: Its LD50 is 708 mg/kg.

Question: For `Cc1c([N+](=O)[O-])cccc1[N+](=O)[O-]`, which LD50 is on record?
Answer: Its LD50 is 177 mg/kg.

Question: Which LD50 does the source give for `[C-]#N.[Na+]` here?
Answer: Its LD50 is 6.44 mg/kg.

Question: With `Cc1cc([N+](=O)[O-])cc([N+](=O)[O-])c1` as the compound, how does the LD50 read?
Answer: The LD50 was 216 mg/kg.

Question: Which LD50 does the source give for `CP(Cl)Cl` here?
Answer: Its LD50 is 830 mg/kg.

Question: With `CN(C)CCCl` as the compound, how does the LD50 read?
Answer: Its LD50 is 238 mg/kg.

Question: With `CP(=O)(O)O` as the compound, how does the LD50 read?
Answer: Its LD50 is 2300 mg/kg.

Question: Which LD50 does the source give for `CCOP(=O)(O)CC` here?
Answer: Its LD50 is 2110 mg/kg.

Question: Which LD50 does the source give for `CCC(=O)N(c1ccccn1)C(C)CN1CCCCC1` (stereo unspecified) here?
Answer: The LD50 was 1290 mg/kg.

Question: For `O=[N+]([O-])C(F)(COCOCC(F)([N+](=O)[O-])[N+](=O)[O-])[N+](=O)[O-]`, which LD50 is on record?
Answer: The LD50 was 2400 mg/kg.

Question: With `CCN(CC)CCCl` as the compound, how does the LD50 read?
Answer: Its LD50 is 17 mg/kg and 50 mg/kg.

Question: For `Cc1ccc([N+](=O)[O-])c([N+](=O)[O-])c1`, which LD50 is on record?
Answer: Its LD50 is 807 mg/kg.

Question: With `CC(CO[N+](=O)[O-])(CO[N+](=O)[O-])CO[N+](=O)[O-]` as the compound, how does the LD50 read?
Answer: The LD50 was 1030 mg/kg.

Question: With `CCCSP(C)SCCC` as the compound, how does the LD50 read?
Answer: The LD50 was 2.24 mg/kg.

Question: Which LD50 does the source give for `CC(CO[N+](=O)[O-])O[N+](=O)[O-]` (stereo unspecified) here?
Answer: Its LD50 is 250 mg/kg.

Question: Which LD50 does the source give for `O=[N+]([O-])c1cc([N+](=O)[O-])c(O)c([N+](=O)[O-])c1` here?
Answer: Its LD50 is 200 mg/kg.

Question: With `O=[N+]([O-])OCC1CO1` (stereo unspecified) as the compound, how does the LD50 read?
Answer: The LD50 was 460 mg/kg.

Question: With `O=[N+]([O-])OCC(O)CO[N+](=O)[O-]` as the compound, how does the LD50 read?
Answer: The LD50 was 1060 mg/kg.

Question: With `N=C(N)N[N+](=O)[O-]` as the compound, how does the LD50 read?
Answer: The LD50 was 10200 mg/kg.

Question: With `CC(C)N(CCCl)C(C)C` as the compound, how does the LD50 read?
Answer: Its LD50 is 96.8 mg/kg.

Question: Which LD50 does the source give for `CC(C)OP(C)(=O)O` here?
Answer: The LD50 was 6070 mg/kg.

Question: For `CC(C)O[PH](=O)OC(C)C`, which LD50 is on record?
Answer: Its LD50 is 1700 mg/kg.

Question: Which LD50 does the source give for `Cc1cccc([N+](=O)[O-])c1[N+](=O)[O-]` here?
Answer: Its LD50 is 911 mg/kg.

Question: For `[O-][n+]1onc2c1c1no[n+]([O-])c1c1no[n+]([O-])c21`, which LD50 is on record?
Answer: The LD50 was 2880 mg/kg.

Question: For `O=[N+]([O-])C(F)(COCC(COCC(F)([N+](=O)[O-])[N+](=O)[O-])(N(F)F)N(F)F)[N+](=O)[O-]`, which LD50 is on record?
Answer: The LD50 was 812 mg/kg.

Question: With `CC(C)OP(OC(C)C)OC(C)C` as the compound, how does the LD50 read?
Answer: Its LD50 is 167 mg/kg.

Question: With `CCO[PH](=S)OCC` as the compound, how does the LD50 read?
Answer: The LD50 was 200 mg/kg.

Question: With `[C-]#N.[Cu+]` as the compound, how does the LD50 read?
Answer: The LD50 was 1260 mg/kg.
